Literature values, collected in US8506947B2 (priority 1999, dated 2013).

System: Breast cancer cells retrovirally transfected with VZV-TK
Conditions: cited from earlier work

Nc1nc(O)c2ncn(COC(CO)CO)c2n1 [GCV, Gancyclovir]
sensitivity of transduced cell lines: minimally increased sensitivity
